Test system: serum albumin
Test: Concanavalin A mouse model: serum albumin
Format: in vivo, C57BL/6 (B6) mice

## C[C@@H]1C[C@H]2[C@@H]3CCC4=CC(=O)C=C[C@]4(C)[C@@]3(F)[C@@H](O)C[C@]2(C)[C@@]1(O)C(=O)CO [Dexamethasone]
2% solutions i.p., 14 hours after Con A administration
  serum albumin levels: 37±17
Biotinylated alginate experiment, 48 hours after Con A administration
  serum albumin levels: 33±4
Hyaluronan comparison, 48 hours after Con A administration
  serum albumin levels: 28.5±4
i.p., Table 3 experiment, 48 hours after Con A administration
  serum albumin levels: 36.2±0.6
Oral administration, Table 7 experiment, 48 hours after Con A administration
  serum albumin levels: 42.5±2
Oral administration, Table 8 experiment, 48 hours after Con A administration
  serum albumin levels: 41±4
γ-irradiated alginate comparison, 48 hours after Con A administration
  serum albumin levels: 39±1

Source: patent US10500226B2
